One data set has as its system IKs current. The note with it: cited from earlier work.
Data set [1] addresses hERG channel (CHO-hERG cells) (Homo sapiens, UniProt Q12809). The data set is described as follows: QPatch whole-cell patch clamp, hERG tail current. To be noted: at highest test concentration 30,000 nM; Mean ± SEM. In general terms: The patch-clamp technique gives a direct electrical read-out from membranes.

Sequences of proteins named here, by UniProt entry; tags and fusion partners are left off. A change or cut given only in a name is not applied to a line headed by its entry.
UniProt Q12809: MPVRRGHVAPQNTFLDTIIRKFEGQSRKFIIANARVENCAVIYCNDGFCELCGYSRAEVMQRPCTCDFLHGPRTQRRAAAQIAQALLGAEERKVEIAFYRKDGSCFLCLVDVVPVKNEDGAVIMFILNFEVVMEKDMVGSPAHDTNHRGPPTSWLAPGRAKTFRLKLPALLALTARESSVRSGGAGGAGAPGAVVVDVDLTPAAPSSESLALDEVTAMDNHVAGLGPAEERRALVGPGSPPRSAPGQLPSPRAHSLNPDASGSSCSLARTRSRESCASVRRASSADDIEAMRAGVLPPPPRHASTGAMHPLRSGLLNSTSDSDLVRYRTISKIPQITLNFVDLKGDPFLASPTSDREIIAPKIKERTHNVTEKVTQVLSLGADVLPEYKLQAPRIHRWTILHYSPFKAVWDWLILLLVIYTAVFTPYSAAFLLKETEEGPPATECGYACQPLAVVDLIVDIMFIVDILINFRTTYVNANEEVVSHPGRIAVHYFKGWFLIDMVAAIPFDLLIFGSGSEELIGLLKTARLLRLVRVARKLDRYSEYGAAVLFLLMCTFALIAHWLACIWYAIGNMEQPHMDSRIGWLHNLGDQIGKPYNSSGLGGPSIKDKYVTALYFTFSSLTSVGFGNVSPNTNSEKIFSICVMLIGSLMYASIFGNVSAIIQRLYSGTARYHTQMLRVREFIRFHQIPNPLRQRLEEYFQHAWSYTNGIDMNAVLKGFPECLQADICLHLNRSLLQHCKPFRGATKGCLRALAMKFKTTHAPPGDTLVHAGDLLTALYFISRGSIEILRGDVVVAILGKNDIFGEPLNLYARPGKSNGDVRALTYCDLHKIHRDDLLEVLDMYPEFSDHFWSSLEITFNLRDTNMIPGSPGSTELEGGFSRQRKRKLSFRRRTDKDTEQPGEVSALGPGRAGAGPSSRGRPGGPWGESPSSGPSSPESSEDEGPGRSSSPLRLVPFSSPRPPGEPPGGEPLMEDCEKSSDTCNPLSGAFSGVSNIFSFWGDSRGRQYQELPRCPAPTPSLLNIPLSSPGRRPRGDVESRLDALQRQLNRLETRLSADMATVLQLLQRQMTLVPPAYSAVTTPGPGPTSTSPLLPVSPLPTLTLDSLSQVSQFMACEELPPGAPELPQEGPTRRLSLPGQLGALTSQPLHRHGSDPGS

The source of these data is article PMC6558757 (JRSM Cardiovascular Disease, 2019).

Regarding `O=C(Cc1ccc(C(F)(F)F)cc1C(F)(F)F)N[C@@H]1N=C(c2ccccc2)c2ccccc2N(CC(F)(F)F)C1=O` [L-673, (R)-2-(2,4-trifluoromethyl)-N-[2-oxo-5-phenyl-1-(2,2,2-trifluoroethyl)-2,3-dihydro-1H-benzo[e][1,4]diazepin-3-yl]acetamide], the “potency relative to JNJ303 or HMR-1556 on IKs current inhibition” value in the data set on IKs current was 10 fold. The “% inhibition hERG” value in data set [1] was 27 ± 3%@30,000 [4].
